Earlier results, collected in patent US7196201B2 (dated 2007).

Protein sequences, listed by entry. Tags and fused reporters are not part of them. Lines headed by an entry give the natural chain unless they say otherwise; changes in a name come on top.
UniProt P14740: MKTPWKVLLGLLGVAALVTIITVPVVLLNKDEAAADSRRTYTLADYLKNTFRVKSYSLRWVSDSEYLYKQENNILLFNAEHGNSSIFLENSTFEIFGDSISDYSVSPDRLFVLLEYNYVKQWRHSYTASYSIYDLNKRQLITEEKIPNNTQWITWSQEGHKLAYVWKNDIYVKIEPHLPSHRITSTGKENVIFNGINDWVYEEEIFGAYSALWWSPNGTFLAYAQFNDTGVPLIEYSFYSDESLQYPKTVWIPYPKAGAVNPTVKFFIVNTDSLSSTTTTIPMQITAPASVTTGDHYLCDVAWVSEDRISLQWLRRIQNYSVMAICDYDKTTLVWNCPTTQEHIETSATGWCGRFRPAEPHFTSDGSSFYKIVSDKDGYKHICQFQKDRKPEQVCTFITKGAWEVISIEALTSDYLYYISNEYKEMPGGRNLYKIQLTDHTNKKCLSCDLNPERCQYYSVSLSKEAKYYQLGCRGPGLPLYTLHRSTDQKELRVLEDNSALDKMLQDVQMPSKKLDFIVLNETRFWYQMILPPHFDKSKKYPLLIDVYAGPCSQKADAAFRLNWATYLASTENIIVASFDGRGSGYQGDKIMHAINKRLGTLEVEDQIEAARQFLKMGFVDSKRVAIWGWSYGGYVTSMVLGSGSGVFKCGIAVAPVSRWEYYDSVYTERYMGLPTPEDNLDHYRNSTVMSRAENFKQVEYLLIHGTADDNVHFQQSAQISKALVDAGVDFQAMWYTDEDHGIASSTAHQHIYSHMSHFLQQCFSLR

Target: DPP-IV (Rattus norvegicus, UniProt P14740)
Settings: obese Zucker rats

## NVP-DPP728
  oral glucose tolerance: improves oral glucose tolerance
  plasma GLP-1 (2–36 amide) concentrations: increases plasma GLP-1 (2–36 amide) concentrations
